Experimental data: US7482024B2, “Compositions comprising an active agent” (Nektar Therapeutics, priority 1999, dated 2009)
“And” between values parts separate entries of the source, which are not always exact repeats. Identical values can stand only once.

Assay: Surface tension measurement, Kruss Processor Tensiometer-K12, Wilhelmy-method (plate method)
Type: physicochemical
Conditions: 0.2% (wt/vol) plus raffinose to 1% total solids, 25° C.
Protocol: A “surface active” material is one having surface activity (measured, e.g., by surface tensiometry), as characterized by its ability to reduce the surface tension of the liquid in which it is dissolved. […] A peptide that is more surface active than another peptide is one which decreases the surface tension of water to a greater extent, when present in the liquid at the same concentration and measured under the same set of experimental conditions. The surface tension of several representative dipeptides, tripeptides, and proteins was measured at 25° C. and 45° C. to provide an indication of their relative surface activities. Surface tension measurements were carried out using a Kruss Processor Tensiometer-K12 with the Wilhelmy-method (Plate method). Solutions were prepared by dissolving either 0.05%, 0.2%, or 0.6% peptide/protein (by weight) along with an appropriate amount of raffinose by weight to provide final solutions having a 1.0% by weight solids content. Surface tension measurements at 25° C. and 45° C. were then obtained for the test solutions at three different time points (49 seconds, 100 seconds and 194 seconds).

| Substance | Surface tension (ST) (49 s) | Surface tension (ST) (100 s) | Surface tension (ST) (194 s) |
| --- | --- | --- | --- |
| tri-alanine [reference compound] | 72.4 mN/m and 72.2 mN/m and 72.3 mN/m | 72.4 mN/m and 72.2 mN/m | 72.3 mN/m and 72.2 mN/m |
| tri-glutamate [reference compound] | 72.1 mN/m and 72.4 mN/m | 72.1 mN/m and 72.4 mN/m | 72.1 mN/m and 72.4 mN/m and 72.3 mN/m |
